{"source": "patent US20130331402A1", "about": "“DOSING REGIMEN ASSOCIATED WITH LONG-ACTING INJECTABLE PALIPERIDONE ESTERS” (Janssen Pharmaceutica NV, priority 2009, published 2013)", "origin": "cited, not measured here", "settings": "oral atypical antipsychotics, Table 2", "data": [{"smiles": "Cc1cc2c(s1)Nc1ccccc1N=C2N1CCN(C)CC1", "note": "[Olanzapine]", "values": [{"measurement": "Terminal Half-life", "result": 33, "unit": "h"}]}]}
